A short description of data set [1]: SAXS of neat and hydrated amphiphiles (phase, lattice parameter). In kind it is physicochemical. Particulars: for lattice parameter, neat non-hydrated: temperature not printed. On the procedure: SAXS analyses of the bulk and lyotropic phases of the amphiphiles were performed on a Bruker NanoSTAR laboratory SAXS instrument (Brucker AXS, Kalsruhe, Germany).
(§1) The equilibrated lyotropic phases were placed into a demountable button sample cell. For the analysis of the dispersions, a multi-capillary holder was used. Button cells and capillary holder interchangeably fit into a block setup that was temperature-controlled with a Peltier heater-cooler system. 2D scattering images were radially averaged to conventional 1 D scattering plots and as a function of the q value (Å^−1) where q is the length of the scattering vector which was calculated using the formula q=(4π/λ) sin(θ/2), where λ is the wavelength and θ is the scattering angle.
Small angle X-ray scattering patterns of emulsions and liposomes display large broad peaks while liquid crystalline phases of highly ordered nanostructured particles such as cubosomes and hexosomes display distinct sharp peaks. The relative positions of the peaks (“spacing”) allows for the elucidation of the symmetry of the structure. The interplanar distance (d) between two reflecting planes may be calculated using the formula d=(2π)/q, where q is the absolute position of the peak. This, in turn allows for the calculation of the lattice parameter (a), the size of the unit cell, to be calculated.

Data set [2] is described as follows: Mesophase behaviour by polarized optical microscopy (POM). Conditions: for POM observation on exposure to water: 25° C. and 37° C.; for Appearance of the Lyotropic phase at excess water (25° C.-50° C.): POM, equilibration 1 h. In kind it is physicochemical. The method, then: Polarized Optical Microscopy (POM): Samples used for Polarized Optical Microscopy (POM) were prepared by placing a small amount of prodrug amphiphile on a microscope slide and covered with a cover slip. Water was placed on the edges of the cover slip and allowed to flow into the sample by capillary action. The microscope slide was placed in a Linkam PE94 hot stage (Linkam Scientific Instruments Ltd. Surrey, England) and heated at 3° C./min between room temperature and 50° C. […] Images were captured with a Nikon DS-Ri-1 camera. All images were taken at 100× magnification.
The formation of lyotropic mesophases is based on the interaction of the prodrug amphiphile with water. Polarized optical microscopy was used to study the liquid crystalline or crystalline structures of the prodrug amphiphiles. This method was used as a preliminary and qualitative investigation to observe the morphological changes of the amphiphile as well as to predict the structural changes of the mesophases which may form upon hydration with water. For each prodrug amphiphile, a small amount of the neat and dry sample was placed on a microscope slide and covered with a cover slip. Water was placed on the edges of the cover slip to allow to flow into the sample by capillary action. Images were captured at 25° C. before and after the addition of water and at 37° C. after exposure to water. 37° C. was selected due to its physiological relevance. […]

A short description of data set [3]: SAXS / synchrotron SAXS of dispersed nanoparticles. Conditions: dispersion with PEG stabiliser. Format: physicochemical. The method, then: as §1
Small angle X-ray scattering patterns of emulsions and liposomes display large broad peaks while liquid crystalline phases of highly ordered nanostructured particles such as cubosomes and hexosomes display distinct sharp peaks. The relative positions of the peaks (“spacing”) allows for the elucidation of the symmetry of the structure. The interplanar distance (d) between two reflecting planes may be calculated using the formula d=(2π)/q, where q is the absolute position of the peak. This, in turn allows for the calculation of the lattice parameter (a), the size of the unit cell, to be calculated. […]

Data set [4] is described as follows: Reduction kinetics of Pt (IV) prodrug nanoparticles with ascorbic acid (LC-MS). Particulars: ascorbic acid as reducing agent, up to 24 h. Format: in vitro ADME. The method, then: The reducing agent was applied at concentrations corresponding to those found in the living cells' environment, e.g. 1 mM ascorbic acid or 2 mM glutathione (GSH).
Dispersed nanoparticles of Pt (IV) prodrug amphiphiles were mixed with GSH, ascorbic acid or their combination. The ratios of the reducing agents to platinum prodrugs were 10:1 or 50:1 for ascorbic acid and 20:1 for GSH. The reduction kinetics was analysed by LC-MS via monitoring the peaks related to each prodrug amphiphile. The prodrugs were detected by negative ions optimised for each platinum amphiphile. The reduction kinetics was plotted as the percentage of the area under the peak of Pt (IV)-prodrug compared to the peak before the addition of the reducing agent against the time of incubation. At each time point 10 μl of a sample withdrawn from the reaction solution was injected directly into a Phenomenex C8 150 mm×2 mm 5 μm Luna column (Phenomenex, Australia). A 100% Methanol solution was used as the mobile phase with a flow rate of 0.5 ml/min for 8 minutes. The sample after the column separation was eluted to the ESI source. […] The samples were well maintained at a temperature of 37° C. during the entire measurement by incubation in the temperature-controlled auto-sampler. Data was acquired and processed with Xcalibur Quan chromatography software.

In the case of “(cis,cis,trans-(PtCl2(NH3)2) [(Nα-succinoyl)-(Nε-oleoyl)-lysinoyl-ethanolamide)]2 [CP-bis (suc-lys(oleoyl)-ethanolamide)]”, the “lattice parameter, hydrated” value in data set [1] (excess water, 25° C.) is listed as 121.38 ± 0.5 Å; in data set [1] (excess water, 37° C.) it was 121.1 ± 0.5 Å; in data set [1] (excess water, temperature not given), 121.38±0.5 Å; in data set [1] (heated to 37° C.), 121.1±0.5 Å^−1. For the same substance, the “phase, hydrated” value is “la3d” in data set [1] (excess water, 25° C.) and “la3d” in data set [1] (excess water, 37° C.). For the same substance, the “lattice parameter, neat non-hydrated” value is reported as 47.0±0.5 Å in data set [1] (listed as CP-bis (suc-Lys(oleoyl)-ethanolamide)) and 47.0 ± 0.5 Å in data set [1] (listed as CP-bis (suc-lys (oleoyl) ethanolamide)). Moreover, the “POM observation on exposure to water” value in data set [2] is “dark band at the boundary between the amphiphile and water suggesting the formation of possible cubic phases”; in data set [2] (listed as CP-bis(suc-Lys(oleoyl) ethanolamide)) it was “formed a dark band when exposed to water, possibly due to the formation of a cubic phase”. For the same substance, the “lattice parameter of dispersed nanoparticles” value in data set [3] is on record as roughly 121.4 Å. For the same substance, the “structure of dispersed nanoparticles” value in data set [3] is reported as “cubosomes with la3d symmetry”.
Consider “cis, trans [Oxaliplatin-bis (myristoyl), cis, trans [Pt ((1R, 2R)-1,2 cyclohexanediamine-N,N′) (oxalate(2-)O,O′) (myristoyl)2]]”, for which the “Appearance of the Lyotropic phase at excess water (25° C.-50° C.)” value in data set [2] was “No distinct mesophase”. The maximum reduction in data set [4] is recorded as 80%.
As for “cis, trans [Oxaliplatin-bis (suc-PEG3-myristoyl), cis, trans [Pt ((1R, 2R)-1,2 cyclohexanediamine-N,N′) (oxalate(2-)O,O′) (succinoylamidetriethyleneglycol-myristoyl)2]]”, in data set [2], the “Appearance of the Lyotropic phase at excess water (25° C.-50° C.)” value is “Lamellar”.

(Values after patent US12194014B2, “Platinum-based amphiphile prodrugs” (NANOMED HOLDINGS PTY LTD, priority 2018, dated 2025).)
